Legend:
[1] = tested on: rat model of severe SE induced by high-dose lithium and pilocarpine; test: Toxicity score (locomotion, righting reflex, consciousness) in the Tetz model; conditions: diazepam 20 mg/kg
[2] = tested on: Tetz model of SE in Wistar rats; test: Tetz rat model of severe SE induced by high-dose lithium and pilocarpine (mortality, seizures, spikes, Hjorth function, EEG power); conditions: for Hjorth 1 hr: first 1 hr after treatment; for Hjorth 1 hr / Hjorth 6 hr / Seizures/day / Spikes/day: mean; for Hjorth 6 hr: first 6 hrs after treatment; for Seizures/day: number of seizures in first 24 hrs; for mortality: controls 52%; for stopping of SE by monotherapy: valproate 30 mg/kg, brivaracetam 10 mg/kg; for Hjorth function (seizure severity) over first 6 hrs after treatment vs controls not receiving anticonvulsants (FIG. 3): monotherapy: diazepam 5 mg/kg, dizocilpine 1 mg/kg
[3] = tested on: Tetz model of SE in Wistar rats; test: Spontaneous recurrent seizures 6-8 weeks after treatment (epileptogenesis), Tetz model; conditions: diazepam 5 mg/kg
[4] = tested on: SE in Sprague-Dawley rats; test: SE model in Sprague-Dawley rats with scopolamine, EEG power after treatment; conditions: treatment 40 min. after induction of SE, mean
[5] = diazepam 5 mg/kg after 1 hr delay
[6] = diazepam 5 mg/kg after 2 hr delay
[7] = ketamine 10 mg/kg, diazepam 1, 5, 10 or 20 mg/kg

`CN1C(=O)CN=C(c2ccccc2)c2cc(Cl)ccc21` was tested, and the “consciousness, locomotion and righting reflex” value [1] was “induced coma”, the “consciousness, locomotion and righting reflex” value ([1]; listed as DZ) was “severely impaired locomotion and the righting reflex” and the “Hjorth 1 hr” value ([2]; diazepam 1 mg/kg) was 1780. The “Hjorth 6 hr” value ([2]; diazepam 1 mg/kg) was 6534, the Seizures/day ([2]; diazepam 1 mg/kg) was 107 and the Spikes/day ([2]; diazepam 1 mg/kg, number of spikes in 24 hrs) was 5179. The “Hjorth 1 hr” value [2, 5] was 3588, the Seizures/day [2, 5] was 101 and the “Hjorth 1 hr” value [2, 6] was 2880. The Seizures/day [2, 6] was 83, the mortality ([2]; diazepam 5 mg/kg) was 7% and the “Hjorth 1 hr” value ([2]; diazepam 5 mg/kg) was 2312. The “Hjorth 6 hr” value ([2]; diazepam 5 mg/kg) was 5398, the Spikes/day ([2]; diazepam 5 mg/kg) was 2508 and the Seizures/day ([2]; diazepam 5 mg/kg) was 115. For the same compound, the “Hjorth 1 hr” value ([2]; diazepam 10 mg/kg) was 3362, the “Hjorth 6 hr” value ([2]; diazepam 10 mg/kg) was 5398 and the Spikes/day ([2]; diazepam 10 mg/kg) was 1134. The Seizures/day ([2]; diazepam 10 mg/kg) was 89, the “number of post-treatment seizures” value ([2]; diazepam 20 mg/kg, N.S. vs sham-injected controls (100±7)) was 100±8 and the “Hjorth 1 hr” value ([2]; diazepam 20 mg/kg) was 2924. The “Hjorth 6 hr” value ([2]; diazepam 20 mg/kg) was 8238, the Spikes/day ([2]; diazepam 20 mg/kg) was 1077 and the Seizures/day ([2]; diazepam 20 mg/kg) was 100. The “Hjorth function compared to controls not receiving anticonvulsants (atropine group)” value ([2]; diazepam 1, 5, 10 or 20 mg/kg) was “did not reduce”, the “seizure frequency compared to controls not receiving anticonvulsants (atropine group)” value ([2]; diazepam 1, 5, 10 or 20 mg/kg) was “did not reduce” and the mortality ([2]; diazepam 10-20 mg/kg) was ≤ 7%. For the same compound, the stopping of seizures ([2]; diazepam even at 20 mg/kg) was “did not stop seizures”, the “stopping of SE by monotherapy” value [2, 7] was “failed to stop SE” and the “Hjorth function (seizure severity) over first 6 hrs after treatment vs controls not receiving anticonvulsants (FIG. 3)” value ([2]; ketamine 10 mg/kg) was “did not reduce”. For the same compound, the “frequency of spontaneous recurrent seizures vs controls not receiving anticonvulsants (FIG. 6)” value [3] was “did not reduce”.

`CNC1(c2ccccc2Cl)CCCCC1=O` (centres unmarked) was tested, and the “Power integrals 1 hr after treatment” value ([4]; ketamine 90 mg/kg) was 436.7 decibel minutes, the “stopping of SE by monotherapy” value [2, 7] was “failed to stop SE” and the “Hjorth 1 hr” value ([2]; ketamine 10 mg/kg) was 3681. The Seizures/day ([2]; ketamine 10 mg/kg) was 35, the Spikes/day ([2]; ketamine 10 mg/kg, number of spikes in 24 hrs) was 2166 and the “Hjorth function (seizure severity) over first 6 hrs after treatment vs controls not receiving anticonvulsants (FIG. 3)” value ([2]; ketamine 10 mg/kg) was “did not reduce”.

For `Cc1ncc2n1-c1ccc(Cl)cc1C(c1ccccc1F)=NC2`, the “Power integrals 1 hr after treatment” value ([4]; midazolam 9 mg/kg) was 716.7 decibel minutes.

In the case of `CCCC(CCC)C(=O)O`, the “Power integrals 1 hr after treatment” value ([4]; valproate 270 mg/kg) is reported as 940.5 decibel minutes.

`CCC[C@@H]1CC(=O)N([C@@H](CC)C(N)=O)C1` was tested, and the “stopping of SE by monotherapy” value [2, 7] was “failed to stop SE”.

With `C[C@]12N[C@H](Cc3ccccc31)c1ccccc12` the “Hjorth function (seizure severity) over first 6 hrs after treatment vs controls not receiving anticonvulsants (FIG. 3)” value ([2]; ketamine 10 mg/kg) was “did not reduce”.

Reference: patent US9814729B2, “Nerve agent antidotes” (dated 2017)
